The test deals with T1, Class 1 phosphodiesterase PDEB1 (Trypanosoma brucei, UniProt Q8WQX9).
T1 sequence (Q8WQX9 whole entry): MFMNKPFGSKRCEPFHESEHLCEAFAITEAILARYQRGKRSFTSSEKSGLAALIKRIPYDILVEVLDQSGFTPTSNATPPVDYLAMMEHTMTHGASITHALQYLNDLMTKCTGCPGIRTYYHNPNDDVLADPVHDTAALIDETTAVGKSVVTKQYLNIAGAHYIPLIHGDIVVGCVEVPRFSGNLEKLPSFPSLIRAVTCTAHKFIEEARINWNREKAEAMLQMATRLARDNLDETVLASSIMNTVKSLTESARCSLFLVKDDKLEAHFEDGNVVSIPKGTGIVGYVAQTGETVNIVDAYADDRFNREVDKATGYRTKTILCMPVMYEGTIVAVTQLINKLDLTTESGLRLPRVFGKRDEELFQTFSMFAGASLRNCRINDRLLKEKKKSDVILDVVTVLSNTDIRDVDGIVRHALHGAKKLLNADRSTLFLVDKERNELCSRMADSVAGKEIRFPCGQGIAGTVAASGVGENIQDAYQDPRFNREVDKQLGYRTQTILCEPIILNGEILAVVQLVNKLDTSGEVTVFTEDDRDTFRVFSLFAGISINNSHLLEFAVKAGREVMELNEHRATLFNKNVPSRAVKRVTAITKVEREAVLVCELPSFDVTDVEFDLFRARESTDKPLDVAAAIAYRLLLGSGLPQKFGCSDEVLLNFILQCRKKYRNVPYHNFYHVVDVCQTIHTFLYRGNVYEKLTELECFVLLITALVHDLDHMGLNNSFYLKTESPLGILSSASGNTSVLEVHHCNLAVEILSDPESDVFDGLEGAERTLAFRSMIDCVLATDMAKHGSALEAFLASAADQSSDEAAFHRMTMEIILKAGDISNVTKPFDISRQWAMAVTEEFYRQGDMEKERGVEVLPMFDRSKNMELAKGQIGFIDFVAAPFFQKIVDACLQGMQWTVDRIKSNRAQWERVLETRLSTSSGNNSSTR
The experiment in a line: Inhibition of Trypanosoma brucei recombinant PDEB1 pre-incubated for 5 mins prior to substrate addition.

From ChEMBL document CHEMBL3352078, “Repurposing human PDE4 inhibitors for neglected tropical diseases: design, synthesis and evaluation of cilomilast analogues as Trypanosoma brucei PDEB1 inhibitors” (Bioorg Med Chem Lett, 2014) come the findings set out here.

As to `COc1ccc([C@]2(C#N)CC[C@@H](C(=O)O)CC2)cc1OCCCCOc1ccccc1`, the concentration for half-maximal inhibition (IC50) turned out to be 950 nM.

Usually IC50 stands for the concentration that inhibits the measured activity by half.
